This note sets out measurements from US20220062166A1, “Self-Gelling Solutions for Administration of Therapeutics to the Inner Ear” (Spiral Therapeutics, Inc., priority 2019, published 2022).

A short description of series [1]: Dermal sensitization range-finding pilot substudy in guinea pigs. The series is classed as in vivo, guinea pig. To be noted: topical 50 μl of 200, 400, or 797 μM. As to the method: The test article, LPT99, was in a neutral-pH, buffered, isotonic solution containing a thermoreversible compound. The vehicle control was buffered at neutral pH and formulated as for the test article; it contained POLOXAMER® 407, disodium phosphate dodecahydrate hydrogen, sodium dihydrogen phosphate dihydrate, sodium chloride, and water for injection. […] Charles River, Stone Ridge, N.Y.) were dosed.

A short description of series [2]: GLP auditory safety study in rats after single TT administration. The following applies: single TT dose 200, 400, or 797 μM, 30 μL per ear.

Take `COc1ccc2[nH]cc(CCNC(=O)CC3C(=O)N(CCc4ccc(Cl)cc4Cl)CC(=O)N3CCc3cccs3)c2c1` (centres unmarked) [LPT99, 2-(4-(2,4-dichlorophenethyl)-3,6-dioxo-1-(2-(thiophen-2-yl)ethyl)piperazin-2-yl)-N-(2-(5-methoxy-1H-indol-3-yl)ethyl)acetamide]: the “Draize scores (erythema, edema)” value in series [1] is 0. In addition, in series [2], the tolerability entry is “generally well tolerated”.
